This experiment deals with Amine oxidase [flavin-containing] A (Homo sapiens, UniProt P21397). Put plainly: Inhibition of human recombinant MAOA using kynuramine substrate incubated for 20 mins by fluorescence spectrophotometry. In kind it is toxicity.

Protein sequences, listed by entry. Tags and fused reporters are not part of them.
UniProt P21397, whole entry: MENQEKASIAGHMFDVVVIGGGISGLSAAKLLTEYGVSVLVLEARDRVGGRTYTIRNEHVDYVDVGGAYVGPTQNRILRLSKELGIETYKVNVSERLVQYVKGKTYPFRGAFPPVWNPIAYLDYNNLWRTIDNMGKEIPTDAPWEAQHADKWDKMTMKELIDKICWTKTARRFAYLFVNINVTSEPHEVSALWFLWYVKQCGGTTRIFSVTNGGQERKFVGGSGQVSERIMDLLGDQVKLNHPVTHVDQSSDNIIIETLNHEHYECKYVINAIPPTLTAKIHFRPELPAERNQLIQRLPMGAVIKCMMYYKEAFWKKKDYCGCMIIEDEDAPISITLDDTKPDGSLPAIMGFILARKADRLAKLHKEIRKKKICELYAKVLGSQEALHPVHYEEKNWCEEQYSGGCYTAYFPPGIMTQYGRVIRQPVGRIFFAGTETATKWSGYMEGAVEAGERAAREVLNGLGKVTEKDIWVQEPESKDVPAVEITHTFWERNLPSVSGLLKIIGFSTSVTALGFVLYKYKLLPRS

pIC50: −log10 of the molar value.

One may read the pIC50 as −log10 of the IC50, conventionally taken in molar units.

Consider `C#CCN(C)Cc1ccccc1` [PARGYLINE], for which the negative-log IC50 (pIC50) was 4.81.

(Values after ChEMBL document CHEMBL5143673, “The evaluation of N-propargylamine-2-aminotetralin as an inhibitor of monoamine oxidase” (Bioorg Med Chem Lett, 2022).)
